Assay results as given in PMC8949525, “Essential Elements and Isoflavonoids in the Prevention of Prostate Cancer” (Nutrients, 2022).
Like-named read-outs stand apart in the source and are kept apart here.

What was measured:
[1] = system: S. typhimurium TA1535/pSK1002; details: +S9
Experimental: (§1) The umu-test detects the induction of bacterial DNA-damage response, the SOS system, in the strain S. typhimurium TA1535/pSK1002. The test strain carries pSK1002 plasmid, which contains the fusion of umuC, encoding one of SOS response proteins, and lacZ genes. The expression of β-galactosidase protein is fully controlled by umuC gene.
(§2) In the present study, the umu-test was performed in the micro-plate format according to the ISO guideline. The β-galactosidase activity was determined by the degree of ONPG cleavage measured as sample absorbance at 420 nm. The extent of SOS system activation was presented as induction ratio (IR), calculated as the ratio of β-galactosidase activity in the presence of the tested compound(s) to that of negative control. […] The optical density at 600 nm was used to describe the bacteria growth. […] Both measurements were performed with Asys UVM340 Hightech microplate spectrophotometer.
The S9 fraction from rat liver was used for metabolic activation of the tested compounds and the model mutagen. […] The P450 cytochrome level in the isolate was evaluated and the aliquots were stored at −80 °C. The S9 reaction mix was prepared as described by Maron and Ames.
(§3) In order to the establish anti-genotoxic potential of tested compounds, their effects on the action of two model genotoxic agents, 4NQO without the metabolic activation with rat liver S9 fraction and 2AA with metabolic activation, were evaluated. […] Subsequently, the modulation of 4NQO and 2AA genotoxicity by the isoflavones, the elements and their mixtures in previously used concentrations was investigated.

[2] = system: S. typhimurium TA1535/pSK1002; details: 4NQO 0.05 mg/L, −S9; daidzein or equol 10 μM with or without mineral (Table 3); NQO line = genotoxin alone
Experimental: as §1, §2, §3

[3] = isoflavone 10 μM, minerals Zn 0.5, Se 0.03, Cu 0.5, Fe 1.5, Ca 40 μg/mL

Row | Compound | G (growth ratio) ([1]; 2AA 1 mg/L, genistein 10 μM and/or mineral added (Table 5), 2AA line = genotoxin alone) | G (growth ratio) [1, 3] | G (growth ratio) ([1]; 2AA 5 mg/L, daidzein or equol 10 μM with or without mineral (Table 6), 2AA line = genotoxin alone) | G (growth ratio) [2]
1 | [Ca+2].[Cl-].[Cl-] [Ca, calcium chloride] | 1.16 ± 0.10 | 1.09 ± 0.15 | – | –
2 | O=[Se](=O)([O-])[O-].[Na+].[Na+] [Se, sodium selenate] | – | 1.09 ± 0.13 | – | –
3 | Oc1ccc([C@H]2COc3cc(O)ccc3C2)cc1 [eq, equol] | – | 1.06 ± 0.09 | 1.03 ± 0.09 | 1.06 ± 0.27
